Test results published in patent US12497460B2, “Anti-MSR1 antibodies and methods of use thereof” (REGENERON PHARMACEUTICALS, INC., priority 2018, dated 2025).

Target: T1, His9-hMSR1 (human MSR1 extracellular domain) (Homo sapiens, UniProt P21757)
T1 construct: human MSR1 extracellular domain expressed with a N-terminal nonahistidine tag; His9 (nonahistidine) (N); purchased R&D Systems 2708-MS
T1 sequence (P21757 77-451 limits assumed): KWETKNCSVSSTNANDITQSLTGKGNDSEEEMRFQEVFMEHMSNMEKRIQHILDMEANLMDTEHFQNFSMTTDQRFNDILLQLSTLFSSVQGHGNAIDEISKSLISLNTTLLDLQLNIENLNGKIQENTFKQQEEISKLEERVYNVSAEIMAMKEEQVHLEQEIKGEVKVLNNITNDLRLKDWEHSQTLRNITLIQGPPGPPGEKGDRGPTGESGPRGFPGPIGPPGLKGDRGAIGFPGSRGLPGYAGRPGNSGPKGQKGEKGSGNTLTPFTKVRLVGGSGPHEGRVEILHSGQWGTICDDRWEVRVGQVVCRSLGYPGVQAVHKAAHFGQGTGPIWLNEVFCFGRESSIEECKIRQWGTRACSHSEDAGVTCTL
Assay: Biacore surface plasmon resonance binding kinetics of anti-MSR1 mAbs, antibody-capture format
Settings: analyte His9-hMSR1, NB = no binding observed
Experimental: Binding affinities and kinetic constants of human anti-MSR1 antibodies for different MSR1 reagents were determined by real-time surface plasmon resonance (Biacore 4000). All binding studies were performed in 10 mM HEPES, 150 mM NaCl, 3 mM EDTA, and 0.05% v/v Surfactant Tween-20, pH 7.4 (HBS-ET) running buffer at 25° C. and 37° C.
The association rate (ka) and dissociation rate (kd) were determined by fitting the real-time binding sensorgrams to a 1:1 binding model with mass transport limitation using Scrubber 2.0c curve-fitting software. Binding dissociation equilibrium constant (KD) and dissociative half-life (t½) were calculated from the kinetic rates as: […]

ka (25° C.): 1.78e+06 M⁻¹ s⁻¹
ka (37° C.): 1.45e+06 M⁻¹ s⁻¹
B1: H1H27751P-N297Q: one of "Twelve anti-MSR1 antibodies"; "made with an N297Q single point mutation in human Fcγ portion" (antibody, V domains shown)
VH: EVQLVESGGGLVQPGGSLRLSCAASGFTFSNYAMHWVRQAPGKGLEYVSAISSNGGSTYYADSVKGRITISRDNSKNTLYLQMGSLRAEDMAVYYCARGRPYYYYFGMDVWGQGTTVTVSS
VL: DIVMTQTPVSSPVTLGQPASISCRSSQSLVHSDGNTYLSWFQQRPGQPPRLLIYKISNRFSGVPDRFSGSGAGTDFTLKISRVEAEDVGVYYCMQATQFPLNFGGGTKVEIKR
